Assay results as given in patent US8790689B2, “Tamper resistant transdermal dosage form” (dated 2014).
Only a part of the results on these compounds is given; other tests are left out. A number of entries come with more than one value. Only these are listed. An entry can have further records. The values listed for one entry differ for a reason that is not stated; some may be repeats, others may stem from another dose, organism or construct than stated. Brackets with × give the number of equal values in this list.

Assay: Plasma pharmacokinetics after single intraperitoneal co-administration of fentanyl and naltrexone
[1] = Group 1, SAN 1-5: fentanyl 125 μg/kg and naltrexone 125 μg/kg i.p.
[2] = Group 2, SAN 6-10: fentanyl 125 μg/kg and naltrexone 31.3 μg/kg i.p.
[3] = Group 3, SAN 11-15: fentanyl 125 μg/kg and naltrexone 12.5 μg/kg i.p.

Row | Molecule | AUCinf (individual rats) [1] | Cmax (individual rats) [2] | AUCinf (individual rats) [3] | Cmax (individual rats) [3] | Cmax (individual rats) [1] | tmax (individual rats) [2] | t1/2 (individual rats) [3]
1 | CCC(=O)N(c1ccccc1)C1CCN(CCc2ccccc2)CC1 | 8657, 28382, 25082, 7301 pg · h/mL | 19645, 10778, 27269, 11220, 41969 pg/mL | 23772, 27690, 23180, 5387 pg · h/mL | 17851, 24730, 27825, 6417, 5950 pg/mL |  |  | 
2 | norfentanyl |  |  | 5096, 5245, 4303, 9417, 6203 pg · h/mL | 911, 965, 1457, 2692, 3019 pg/mL | 2474, 3572, 1595, 1870, 3245 pg/mL | 0.750, 0.333 (2×), 1.00, 1.50 h | 3.34, 3.48, 1.60, 1.41, 1.81 h
